# This is a sample that favours compounds with a hit; in the whole collection about 13% have one here.
# miR-21 FLuc: miR-21 reporter, rising signal; HeLa miR-21 FLuc reporter, luciferase, 48 h; Potency, µM (titrated, usually from 38.3 µM), for the others: at the top dose reporter change, positive = more light; 340,000 tested, under 10 active; AID 2288; active = well fitted rising curve with a large enough effect; inconclusive = small, poorly fitted or top-dose-only effect; inactive = no such curve, though single readings can be large or run the other way;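 also: % of control where 0% means no effect; miR-21 action dims this reporter so a rising signal means less miR-21 action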
#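 HeLa cells stably expressing CMV-driven firefly luciferase with a downstream miR-21 binding sequence, endogenously expressing miR-21, were treated with titrations (up to about 40uM final) for 48 hours at 37 degree Celsius. Luciferase luminescence was read after lysis.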
# JMJD2E inh: blocks human JMJD2E demethylase activity. B2RXH2. JMJD2E catalytic domain, FDH-coupled NADH fluorescence (FDH is formaldehyde dehydrogenase). Potency, µM (doses to about 57.1 µM), without a hit: top-dose activity change, negative = inhibition, hits mostly inhibitors. 1.6% of 230,000 active; active = well fitted inhibition curve with a large enough effect, not every such curve was filed as active; inconclusive = small, poorly fitted or top-dose-only effect, or another doubt; inactive = no such curve, though single readings can be large or run the other way;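 note: potency is the fitted concentration of half-maximal effect; 0% = wells with enzyme and -100% = buffer wells without enzyme; nearly all actives have a fitted effect of over 50% in size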
# Sfp PPTase inh: qHTS Assay for Inhibitors of Bacillus subtilis Sfp phosphopantetheinyl transferase (PPTase); 4'-phosphopantetheinyl transferase ffp (Bacillus subtilis), Q9F4F7; Biochemical Sfp PPTase activity, qHTS; Potency, µM, for inactives: max response, negative = inhibition, most hits filed as inhibitors; hit rate 3.5% among 310,000; AID 1490, 2009; active = well fitted inhibition curve with a large enough effect; inconclusive = small, poorly fitted or top-dose-only effect, or another doubt; inactive = no such curve, though single readings can be large or run the other way;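 also: the enzyme is Sfp with the accession as filed and its product quenches rhodamine fluorescence; potency is read from the fitted curve at half-maximal effect; 0% = enzyme reaction without inhibitor and -100% = no enzyme wells; top concentration of the series not given in the record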
#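 Compounds were incubated with enzyme (final 15 nM) for 15 min at room temperature before substrate addition started the reaction. Fluorescence at 525 nm excitation, 598 nm emission was recorded immediately and after 30 minutes.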
# ALDH1A1 block: blocks purified human ALDH1A1 activity; P00352; Purified ALDH1A1, NADH fluorescence, propionaldehyde substrate; Potency, µM (series often up to 75.3 µM), without a hit: at the highest dose activity, negative = inhibition, most hits filed as inhibitors; 7.3% of 220,000 active; active = well fitted inhibition curve with a large enough effect, not every such curve was filed as active; inconclusive = small, poorly fitted or top-dose-only effect, or another doubt; inactive = no such curve, though single readings can be large or run the other way;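 note: potency is the fitted concentration of half-maximal effect; plate controls were no enzyme wells and a reference inhibitor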
# G9a block: blocks human histone lysine methyltransferase G9a; Q96KQ7; G9a H3K9 monomethylation, AlphaScreen, 2 h; Potency, µM (top dose mostly 102 µM), without a hit: at the top dose activity, negative = inhibition, usual class: inhibitors; AID 504332; 8.8% of 350,000 active; note: potency is the fitted concentration of half-maximal effect; % is set by controls: 0 for no effect and ±100 for the full control effect; nearly all actives have a fitted effect of over 75% in size
#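 Chemiluminescent proximity detection of H3K9 monomethylation, read after 10 min bead incubation in the dark. Reaction: 20 nM G9a, 500 nM biotin-H3K9 peptide, 20 uM SAM cofactor, 2 h, room temperature, following 15 min enzyme-compound preincubation.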
# LMNA splice mod: modulators of lamin A splicing; 0.01% of 200,000 active; HeLa LMNA splicing GFP/RFP minigene ratio, 48 h; Potency, µM (highest dose often 46.1 µM), for inactives: at the top dose ratio change, negative = inhibition, hits mostly inhibitors; active = well fitted inhibition curve with a large enough effect in the signal ratio, with a control signal flat, not every such curve was filed as active; inconclusive = small, poorly fitted or top-dose-only effect, or effect the other way, or a change in a side signal; the % refers to the signal ratio; note: potency is the fitted concentration of half-maximal effect; % is set by controls: 0 for no effect and ±100 for the full control effect
#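 S3 HeLa stable clones carrying a lamin A-EGFP splicing minigene plus DsRed2 were seeded at 600 cells/well in Opti-MEM with 2% FBS, pin-dosed and incubated 48 h at 37°C. Acumen cytometry (488 nm) gave the GFP/RFP total-intensity ratio.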
# Active calls of the source: *; ? = inconclusive; . = no result given; [ ] = dose if it differs, or a comment. Unless noted, calls come from the whole dose curve; as a rule, active = well fitted curve in the direction sought with a large enough effect; inconclusive = small, poorly fitted or top-dose-only effect, or another doubt; inactive = no such curve, though single readings can be large; an effect the other way counts as inactive or inconclusive.
# Results follow in this order: LMNA splice mod | miR-21 FLuc | Sfp PPTase inh | JMJD2E inh | G9a block | ALDH1A1 block
Cc1ccccc1N(CC(=O)NCc1ccccc1)C(=O)CCC(=O)Nc1nccs1
 : . | 2% | 5% | . | 17% | .
CCn1c(SCc2nc3sc(C(=O)O)c(C)c3c(=O)[nH]2)nnc1-c1ccc(Cl)cc1
 : -11%[46 µM] | -2% | -2% | -23% | ? | 14µM*
CCn1c(SCc2nc3scc(-c4ccccc4)c3c(=O)[nH]2)nnc1-c1cccs1
 : -18% | 14% | -20% | -2% | -12% | ?
Cc1sc2nc(CSc3nnnn3-c3ccc(Cl)cc3)[nH]c(=O)c2c1C
 : ? | -15% | 79µM* | ? | ? | ?
Cc1ccc(C(=O)N/N=C/c2cccc(OC(=O)/C=C/c3ccco3)c2)cn1
 : -5%[9.22 µM] | -14% | 32µM* | -18% | 45µM* | ?
O=C(/C=C/c1ccco1)Oc1cc(Br)cc(/C=N/NC(=O)c2ccccc2O)c1
 : ? | -11% | 9% | 25µM* | -16% | 2%
O=S(=O)(c1ccccc1)c1cccc(S(=O)(=O)N2CCCCC2)c1
 : ? | 8% | 0% | 5% | -35%[0.0925 µM] | 2.2µM*
CCN(CC)S(=O)(=O)c1ccc(C)c(NC(=S)Nc2cccc(S(=O)(=O)N3CCCCCC3)c2)c1
 : ? | 24% | 5% | 7% | ? | ?
CCN(CC)S(=O)(=O)c1cccc(S(=O)(=O)N2CCCCC2)c1
 : 21% | -2% | 17% | -11% | 14% | 3.5µM*
Cc1cc2ccccn2c1C(=O)c1nc(N2CCOCC2)ncc1Cl
 : -2% | -7% | -1% | -1% | 71µM* | -4%

# Carrying on:
# Results follow in this order: LMNA splice mod | miR-21 FLuc | Sfp PPTase inh | JMJD2E inh | G9a block | ALDH1A1 block
COCCN(CCOC)c1ncc(Cl)c(C(=O)c2c(C)cc3ccccn23)n1
 : ? | 5% | 1% | 3% | 40µM* | -5%
O=C(Cn1ncc2c([nH]c3ccccc32)c1=O)NCC1CCN(Cc2ccccc2F)CC1
 : . | 1% | -8% | . | 13%[59 µM] | .
CCNc1nnc(CCn2nc(C)c(Br)c2C)s1
 : . | -22% | -3% | -17% | 16% | -2%
Cc1cc(C)c2sc(N3CCN(C(=O)c4ccc(N(C)C)cc4)CC3)nc2c1
 : -26%[46 µM] | 1% | . | . | 22µM* | .
CCOc1ccc(C(=O)NCC(C)NC(=O)c2ccc(OCC)cc2)cc1 (stereo unspecified)
 : . | 2% | -16% | . | . | .
CN(C)C(CNC(=O)c1cc(Br)ccc1Cl)c1ccco1 (stereo unspecified)
 : . | -7% | 18% | . | 16% | .
Cc1c(C(=O)NCC(c2ccco2)N(C)C)oc2c(Cl)cccc12 (stereo unspecified)
 : . | . | . | . | 50µM* | .
CCOc1ccc(C(=O)NCC(C)C)cc1
 : 4% | -32% | 1% | -1% | 0.89µM* | 11%
CC(C)CCOc1ccc(C(=O)NCC(c2ccco2)N(C)C)cc1 (stereo unspecified)
 : . | -15% | 3% | . | 50µM* | .
Cc1ccc(CNC(=O)c2ccc(OCC(C)C)cc2)n1C
 : . | -8% | 3% | . | 45µM* | .

# JMJD2E inh, hit marks shown above
Molecule | miR-21 FLuc | Sfp PPTase inh | JMJD2E inh | G9a block | ALDH1A1 block
O=C(/C=C/c1ccco1)Oc1cc(Br)cc(/C=N/NC(=O)c2ccccc2O)c1 | -11% | 9% | 25µM* | -16% | 2%

# Structural class, those above with a thiophene ring, fused or not (three)
# Results follow in this order: LMNA splice mod | miR-21 FLuc | Sfp PPTase inh | JMJD2E inh | G9a block | ALDH1A1 block
CCn1c(SCc2nc3sc(C(=O)O)c(C)c3c(=O)[nH]2)nnc1-c1ccc(Cl)cc1
 : -11%[46 µM] | -2% | -2% | -23% | ? | 14µM*
CCn1c(SCc2nc3scc(-c4ccccc4)c3c(=O)[nH]2)nnc1-c1cccs1
 : -18% | 14% | -20% | -2% | -12% | ?
Cc1sc2nc(CSc3nnnn3-c3ccc(Cl)cc3)[nH]c(=O)c2c1C
 : ? | -15% | 79µM* | ? | ? | ?

# Next section:
# Results follow in this order: LMNA splice mod | miR-21 FLuc | Sfp PPTase inh | JMJD2E inh | G9a block | ALDH1A1 block
CN(C)C(CNC(=O)c1ccc(Br)cc1)c1ccco1 (stereo unspecified)
 : . | -8% | 10% | . | 4% | .
Cc1cccc(N2C(=O)CSC23C(=O)N(Cc2cccc(C(F)(F)F)c2)c2ccccc23)c1 (stereo unspecified)
 : 3%[46 µM] | -4% | . | . | -14%[59 µM] | .
c1cncc(CNCc2ccco2)c1
 : . | -5% | -26% | . | ? | .
COc1ccccc1NS(=O)(=O)c1ccc(Cl)c(NC(=O)C(C)N2C(=O)c3ccccc3C2=O)c1 (stereo unspecified)
 : 5% | 1% | ? | -5% | 50µM* | 18µM*
Cc1cccc(OCC(O)CN2CCNCC2)c1 (stereo unspecified)
 : . | 1% | -1% | . | . | .
CC1(C)CC2CC(C)(CN2CC(O)c2ccccc2)C1 (stereo unspecified)
 : . | -1% | -13% | . | 22µM* | .
Cc1cccc(OCC(O)CN2CC3(C)CC2CC(C)(C)C3)c1 (stereo unspecified)
 : 8% | -6% | -9% | -20% | 28µM* | -6%
